# Test system: HeLa cells
# Test: Cytotoxicity assay by bioimpedance measurement
# Assay type: cell-based, human
# Conditions: 10 μM, 24 hours
# Protocol: Kinetics of cell reaction to 7 and 9 peptide treatment was monitored by impedance measurement at 10 kHz (RTCA-SP instrument, ACEA Biosciences, San Diego, Calif., USA). Impedance measurement is non-invasive, label-five and real time, and linearly correlates with adherence, growth, number and viability of cells. For background measurements 50 μL cell culture medium was added to the wells, then HeLa cells were seeded at a density of 6×10^3 cells/well on non-coated 96-well plates with integrated gold electrodes (E-plate 96, ACEA Biosciences). Cells were treated with peptide solutions at 0.1, 0.5, 1, 5 and 10 μM concentrations at the beginning of the plateau phase of growth and the effects were followed for 24 hours. Triton X-100 detergent (1 mg/mL) was used as a reference compound to induce cell death. Cell index was defined as Rn-Rb at each time point of measurement, where Rn is the cell-electrode impedance of the well when it contains cells and Rb is the background impedance of the well with the medium alone.
structure (smiles),measurement,value
"NCCCC[C@H](NC(=O)[C@H](Cc1ccc(O)cc1)NC(=O)[C@@H](N)Cc1c[nH]c2ccccc12)C(=O)N[C@@H](Cc1ccc(O)cc1)C(=O)N[C@@H](Cc1c[nH]c2ccccc12)C(N)=O [WYKYW, Trp-Tyr-Lys-Tyr-Trp]",cytotoxicity,not toxic

# From patent US20220389057A1, “ENDOCYTOSIS ROUTING SEQUENCE PEPTIDE FOR CELL DELIVERY SYSTEMS” (SZEGEDI TUDOMÁNYEGYETEM, priority 2019, published 2022)
